Source: PubChem BioAssay AID1381 (University of Pittsburgh Molecular Library Screening Center, 2008)
The list shows a part of the results, in another mix than the full data. Some of these compounds have results that are not shown, active ones among them. Active and inactive are the calls of the source.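 Rule for the calls: active = plate z-score of nuclear minus cytoplasmic receptor signal below a set negative limit, without overly bright fluorescence or cell loss (cut at about -3.5 in these data, passing the limit was not always enough); inactive = the rest, inconclusive results apart.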

Assay: inhibitors of GR-EGFP nuclear translocation, primary screen, dynein cargo transport inhibitor project, imaging, high-content, 3617.4 mouse cells (AID 1381)
Conditions: hits give low values, stimulated with dexamethasone, 1 µM; at 20 µM unless noted
In the case of `O=C(NCC1(N2CCCCC2)CCCCC1)c1cc([N+](=O)[O-])ccc1Cl`, the z-score is reported as inactive: -1.05.
In the case of `CC(C)N1C(=O)CC2(CCN(CCOC(=O)C(O)(c3ccccc3)c3ccccc3)CC2)C1=O`, the z-score is reported as inactive: 0.0909.
With `CCN(CC)CC(C)C(C)OC(=O)C(O)(c1ccccc1)c1ccccc1` (stereo unspecified) the z-score was inactive: -0.399.
With `Cc1ccccc1C(=O)NCC1(N2CCCCC2)CCCCC1` the z-score was inactive: 0.258.
With `CN(C)C1CCCC1OC(=O)C(O)(c1ccccc1)c1ccccc1` (stereo unspecified) the z-score was inactive: -0.0946.
For `C=CCN1CCN(CCOC(=O)C(O)(c2ccccc2)c2ccccc2)CC1`, the z-score was inactive: 0.0497.
In the case of `CCN1CCCC(OC(=O)C2(O)c3ccccc3C=Cc3ccccc32)C1` (stereo unspecified), the z-score is reported as inactive: 0.126.
For `COc1cccc(C(=O)NCC2(N3CCCCC3)CCCCC2)c1`, the z-score was inactive: -0.266.
With `O=C(OC1CN2CCC1CC2)C(CO)(c1ccccc1)c1ccccc1` (stereo unspecified) the z-score was inactive: -0.336 [at 50 µM].
For `COc1ccc(Br)c(C(=O)NCC2(N3CCCCC3)CCCCC2)c1`, the z-score was inactive: -1.35.
With `CN(C)c1cccc(C(=O)NCC2(N(C)C)CCCCC2)c1` the z-score was inactive: -0.589.
